# According to patent US20190327961A1, “STABLE SOLID COMPOSITION BASED ON AN AROMATIC COMPOUND AND USES THEREOF” (priority 2016, published 2019):
# System: cherry tomatoes (Angel D1A1 variety)
# Experiment: Washing of cherry tomatoes post-harvest, storage test
# Format: in vivo
substance,measurement,setting,value
chlorine,Percentage of Rotten Cherry Tomatoes,"Stored at 8° C., 4 d",2%
same,Percentage of Rotten Cherry Tomatoes,"Stored at 8° C., 6 d",6.67%
same,Percentage of Rotten Cherry Tomatoes,"Stored at 8° C., 8 d",10%
same,Percentage of Rotten Cherry Tomatoes,"Stored at 8° C., 10 d",15%
same,Percentage of Rotten Cherry Tomatoes,"Stored at 8° C., 12 d",30%
same,Percentage of Rotten Cherry Tomatoes,"Stored at 8° C., 14 d",37.68%
same,Percentage of Rotten Cherry Tomatoes,"Stored at 8° C., 16 d",50%
same,Percentage of Rotten Cherry Tomatoes,"Stored at 25° C., 4 d",9.55%
same,Percentage of Rotten Cherry Tomatoes,"Stored at 25° C., 6 d",20.58%
same,Percentage of Rotten Cherry Tomatoes,"Stored at 25° C., 8 d",42.9%
same,Percentage of Rotten Cherry Tomatoes,"Stored at 25° C., 10 d",47.9%
same,Percentage of Rotten Cherry Tomatoes,"Stored at 25° C., 12 d",50%
same,Percentage of Rotten Cherry Tomatoes,"Stored at 25° C., 14 d",57.15%
same,Percentage of Rotten Cherry Tomatoes,"Stored at 25° C., 16 d",64.28%
